# In ChEMBL document CHEMBL4800727 (2021):
# Biological target: T1, cAMP and cAMP-inhibited cGMP 3',5'-cyclic phosphodiesterase 10A (Rattus norvegicus, UniProt Q9QYJ6)
# T1 sequence (Q9QYJ6 whole entry): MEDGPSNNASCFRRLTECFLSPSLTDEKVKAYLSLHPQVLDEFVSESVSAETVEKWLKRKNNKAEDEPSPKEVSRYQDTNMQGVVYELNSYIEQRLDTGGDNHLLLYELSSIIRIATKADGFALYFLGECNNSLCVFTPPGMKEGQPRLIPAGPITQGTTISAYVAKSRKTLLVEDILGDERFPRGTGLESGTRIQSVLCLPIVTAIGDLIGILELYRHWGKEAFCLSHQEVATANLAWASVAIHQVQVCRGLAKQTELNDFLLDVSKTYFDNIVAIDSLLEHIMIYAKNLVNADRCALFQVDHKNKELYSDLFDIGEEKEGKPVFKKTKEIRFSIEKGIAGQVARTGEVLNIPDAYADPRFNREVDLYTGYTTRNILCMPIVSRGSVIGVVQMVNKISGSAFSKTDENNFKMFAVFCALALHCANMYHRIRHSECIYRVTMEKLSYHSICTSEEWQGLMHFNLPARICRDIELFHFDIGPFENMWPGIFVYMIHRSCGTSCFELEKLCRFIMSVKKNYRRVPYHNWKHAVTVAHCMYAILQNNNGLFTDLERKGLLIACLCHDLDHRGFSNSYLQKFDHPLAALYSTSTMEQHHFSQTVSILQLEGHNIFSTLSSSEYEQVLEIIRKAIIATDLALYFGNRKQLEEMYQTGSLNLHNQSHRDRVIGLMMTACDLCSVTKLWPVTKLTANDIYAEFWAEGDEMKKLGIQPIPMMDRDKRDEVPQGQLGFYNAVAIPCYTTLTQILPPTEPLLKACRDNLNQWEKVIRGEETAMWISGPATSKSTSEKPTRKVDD
# Assay: SPA with rat PDE10A
structure (smiles),measurement,value
COCCc1ccc(-c2c(C)nc3c(N4CCOCC4)ccnn23)cn1 [JNJ-42396302],Ki,active: 19 nM

# Active and inactive are the calls of the source. The calls are words filed in the database; no cut-off is given here.
